Laboratory results reported in patent US20070066543A1, “Treatment of tay sachs or sandhoff diseases by enhancing hexosaminidase activity” (The Hospital For Sick Children, priority 2003, published 2007).

By UniProt entry, the sequences of proteins in these tests, tags left out. Where a name states a change or a piece, a line headed by the entry shows the natural chain unless it says otherwise. Residues count along the entry.
UniProt P06865, 23-74 partner limits assumed: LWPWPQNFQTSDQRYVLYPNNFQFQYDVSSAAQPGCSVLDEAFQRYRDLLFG
UniProt P06865, 89-529 G269S: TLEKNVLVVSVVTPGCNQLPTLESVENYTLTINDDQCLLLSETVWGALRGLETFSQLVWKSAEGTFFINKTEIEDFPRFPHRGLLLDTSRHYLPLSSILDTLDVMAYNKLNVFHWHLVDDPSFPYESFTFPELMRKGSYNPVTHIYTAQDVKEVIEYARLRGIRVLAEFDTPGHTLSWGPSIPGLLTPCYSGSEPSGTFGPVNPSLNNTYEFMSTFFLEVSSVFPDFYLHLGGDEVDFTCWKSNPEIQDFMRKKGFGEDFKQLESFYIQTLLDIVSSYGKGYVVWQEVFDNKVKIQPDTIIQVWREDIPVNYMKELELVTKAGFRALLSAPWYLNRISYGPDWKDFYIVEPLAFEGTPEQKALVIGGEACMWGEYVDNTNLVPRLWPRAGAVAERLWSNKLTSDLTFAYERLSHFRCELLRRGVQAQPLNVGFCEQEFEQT
UniProt P07686, 50-107 partner limits assumed: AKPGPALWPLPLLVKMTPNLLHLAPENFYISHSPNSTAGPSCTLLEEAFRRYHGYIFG
UniProt P07686, 315-556 limits assumed: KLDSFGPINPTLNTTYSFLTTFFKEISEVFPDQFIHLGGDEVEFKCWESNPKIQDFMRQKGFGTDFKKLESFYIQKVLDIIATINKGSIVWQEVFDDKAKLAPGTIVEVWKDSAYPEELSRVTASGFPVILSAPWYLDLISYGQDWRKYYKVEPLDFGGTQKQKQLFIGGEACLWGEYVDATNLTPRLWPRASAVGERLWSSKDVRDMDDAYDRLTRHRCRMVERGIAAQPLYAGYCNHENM
UniProt P07686, 122-311 limits assumed: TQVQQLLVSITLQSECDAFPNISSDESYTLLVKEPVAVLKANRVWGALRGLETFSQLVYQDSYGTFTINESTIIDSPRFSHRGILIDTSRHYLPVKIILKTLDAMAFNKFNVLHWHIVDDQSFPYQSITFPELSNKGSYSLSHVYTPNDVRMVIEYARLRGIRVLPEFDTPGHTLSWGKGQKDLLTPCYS

Assays:
[1] = molecular target: hexosaminidase A (G269S) in ATSD fibroblasts (Homo sapiens, UniProt P06865+P07686, G269S); experiment: Hexosaminidase A activity (MUGS) in adult Tay-Sachs (ATSD, 17662) fibroblasts grown with compound; details: for hexosaminidase A activity with increasing incubation times: ATSD fibroblasts; for hydrolysis of MUGS in lysates from treated cells: five days of growth with compound; for activity of hexosaminidase A: 5 days, varying concentrations (Example 11)
[2] = molecular target: hexosaminidase A subunits in ATSD fibroblasts (Homo sapiens, UniProt P06865+P07686, G269S); experiment: Western blot of ATSD cell lysates with anti-hexosaminidase A antibody; format: cell-based; details: 5 days
Method: For western blot analysis, Cellulose acetate eletrophoresis, and to determine the increase in hexosaminidase A specific activity, ATSD fibroblasts were grown for 5 days in 6 well tissue culture plates (Falcon, 40 mm2) containing 1.5 mL a-MEM, FCS P/S media supplemented with/without the compounds to be evaluated. Subsequently, media were removed, cells were washed twice in PBS, and finally scraped into 1 mL of PBS. Following pelleting in microfuge, the cells were resuspended in 10 mM phosphate buffer pH 6.1 containing 5% glycerol and disrupted using by sonication (ARTEK Sonic Dimembrator, Farmington N.Y.), on ice with 4 pulses for 10 seconds at setting 6. Cleared lysates were prepared by microcentrifugation (Eppendorf) at maximum setting for 15 min at 4° C. and total protein concentration was determined using BCA protein assay (PIERCE) according to manufacturers instructions. Hexosaminidase A activity was determined using MUGS substrate at 37° C. for 1 hr as described above and expressed as nmoles of MU released/hr/mg of total protein.
Lysates containing 5 μg total protein were subjected to PAGE on a 10% bis:acrylamide gel, electrophoretically transferred to nitrocellulose (Schlicher and Schull), blotted with 5% non-fat dry skim milk powder in 25 mM Tris pH 7.5, 150 mM NaCl, 0.025% Tween 20 buffer overnight at room temperature. Blocked blots were incubated with rabbit anti-human hexosaminidase A polyclonal Ab, washed with blocking buffer, followed by incubation with anti-rabbit IgG peroxidase conjugated secondary Ab. Blots were developed using chemiluminescent substrate according to manufacturers protocol (Amersham) and recorded on BIOMAX X-ray film (KODAK).
17662 cells were grown in 6 well tissue culture dishes in medium with or without inhibitor for 6 days. Subsequently, medium was removed, cells were washed twice with PBS, scraped off into 1 ml PBS, centrifuged, and pellet was resuspended in 10 mM potassium phosphate buffer pH 6.1, 1% Triton X100. Half of the aliquot was used in a western blotting experiment and the other half was used to determine the MUGS activity of the sample. For western blotting, following PAGE, transfer to nitrocellulose and blocking in non-fat dry milk, the blot was incubated sequentially with polyclonal anti-rabbit hexosaminidase A antibody and goat anti-rabbit IgG peroxidase-conjugated secondary antibody (Amersham Biosciences). Antibody binding was visualized by ECL according to the manufacturer's instructions for Amersham ECL.

[3] = molecular target: human placental hexosaminidase B (Homo sapiens, UniProt P07686)
[4] = molecular target: hexosaminidase A in ATSD fibroblasts (Homo sapiens, UniProt P06865+P07686, G269S); experiment: Specific activity of hexosaminidase A in lysate and lysosomal fraction of ATSD fibroblasts; format: cell-based
[5] = ATSD cells, various concentrations (FIGS. 15, 16)

Structure (SMILES)	hexosaminidase A activity [1, 5]	hydrolysis of MUGS in lysates from treated cells ([1]; chronic TSD fibroblasts)	band at 56 kD, lysosomally processed α-subunit (Western blot), versus untreated cells [2]	mode of inhibition of hexosaminidase B [3]	activity of hexosaminidase A ([1]; ATSD cells)	also measured
CC(=O)NC1CN2CCC(O)C2C(O)C1O (stereo not shown) [ACAS, 6-acetamido-6-deoxy-castanospermine]	increased	increased	increased amounts	–	–	persistence of restorative effect on hexosaminidase A activity after removal of the inhibitor ([1]; 17662 cells, 25 μg/ml for 3 days, then inhibitor-free medium): at least 4 days; hexosaminidase A activity ([1]; 17662 cells, ACAS 4 days, MUGS): increased; persistence of enhancing effect after removal of compound ([1]; ATSD fibroblasts grown 4 days with compound, then medium lacking it): > 3 days; hexosaminidase A activity with increasing incubation times ([1]; all concentrations of ACAS): continued to increase; concentration still effective in enhancing hexosaminidase A activity ([1]; chronic TSD fibroblasts, five days): 5 µM
CC(=O)N[C@H]1CN[C@H](CO)[C@@H](O)[C@@H]1O [AddNJ, 2-acetamido-1,2-dideoxynojirimycin]	–	increased	increased amounts	–	–	–
CC(=O)N[C@@H]1[C@@H](O)[C@@H](O)[C@@H](CO)O[C@H]1O [GalNAc, N-acetyl-β-D-galactosamine]	–	increased	increased amounts	–	–	–
CC1=NC2[C@@H](O)[C@@H](O)C(CO)O[C@H]2S1 (stereo partly shown) [NAGal-thiazoline (2.6), N-acetyl galactosamine-thiazoline]	–	–	–	competitive inhibitors	–	–
CC1=NC2[C@@H](O)[C@H](O)C(CO)O[C@H]2S1 (stereo partly shown) [NGT, N-acetylglucosamine-thiazoline]	increased	increased	increased amounts	competitive inhibitors	increased	activity of Hexosaminidase A/S (MUGS) [1]: increased; time of growth in normal medium after which effect was reduced to near background levels ([1]; ATSD fibroblasts grown 4 days with compound, then normal medium): 2 days; hexosaminidase A activity with increasing incubation times ([1]; highest concentration of NGT (0.9 mM)): continue to increase; hexosaminidase A activity with increasing incubation times ([1]; lower NGT concentrations (0.18 mM, 0.03 mM, 0.007 mM)): peaked after seven days incubation, and plateaud or declined thereafter; increase in specific hexosaminidase A activity ([4]; ATSD cells, 0.9 mM NGT, 5 days): eight fold; increase in hexosaminidase A (lysate) ([4]; ATSD fibroblasts, 250 μg/mL, 7 days, lysate): approximately two fold
CC(=O)OCC1OC2SC(C)=NC2C(OC(C)=O)C1OC(C)=O (stereo not shown) [fully acetylated NGT]	–	–	–	–	increased	–
